An excerpt weighted towards active compounds, which were near 1.2% of everything screened.
C2C12 statin = suppressors of simvastatin-induced myotoxicity in C2C12 myotubes | ATP luminescence, 48 h; scaled: DMSO 0, geranylgeraniol control 100 | rescue of ATP level, % at 7.49 µM | 330,000 tested, 0.78% active | AID 602340;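 active = mean ATP rescue above about 67%, or every replicate alone reaching that limit, limit read from the data, passing the limit was not always enough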;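 note: myotubes were challenged with 10 µM simvastatin during compound exposure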
Glyco luc inh = N-linked glycosylation inhibition; D54 ERlucT glycosylation luciferase reporter, 24 h; percent of 100 nM tunicamycin response; reporter increase, % at 12.5 µM; 360,000 tested, 0.23% active; AID 588692;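 active = mean luciferase reporter signal, scaled so untreated is 0 and the glycosylation-blocking control 100, at or above a set limit in every replicate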;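 note: luciferase carries N-glycosylation sites so blocking glycosylation raises the light; 0% = median of neutral control wells and 100% = median of 100 nM tunicamycin wells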
Cneo AK release = causes C. neoformans cell lysis | lysis activity, % at 15 µM | 360,000 tested, 0.2% active | AID 651654 | adenylate kinase release luminescence, 4 h; normalised: neutral wells 0, clomiphene wells 100;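 active = mean lysis activity across replicates of at least 80%, whatever share of replicates individually reach that level; inactive = mean lysis activity below 80%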
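Signal: Adenylate kinase release luminescence | Assay system: Log-phase Cryptococcus neoformans yeast cells | Input: Cells at 5 × 10^6 per mL | Buffer or medium: Fresh YPD growth medium | Compound: Single dose | Schedule: Static 4 h at 37 °C with compound, 1 h detection | Controls: Clomiphene | Read-out: Luminescence rise reflecting yeast cell lysis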
UUG fidelity = modulators of start codon recognition fidelity in yeast. S. cerevisiae UUG-firefly luciferase reporter, luminescence/redox ratio. activity score, % at 18.7 µM. 0.13% of 350,000 active. AID 602363;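 active = replicate mean at a twofold rise or more, about +100% in these data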;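 also: firefly luciferase made from a UUG start codon reports start codon fidelity; reporter light over untreated wells divided by growth signal over untreated wells; some hits fall short of that in this replicate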
miR-122 sensor = inhibitors of miR-122 in Huh7 cells | Huh7 miR-122 Renilla luciferase sensor, 48 h; neutral wells = 0, positive control = 100 | activation (reporter increase), % at 12.5 µM | AID 602342 | 340,000 tested, 0.3% active;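 active = mean replicate activation score at least 90 and every replicate individually at or above 90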;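 note: higher luciferase means less miR-122 activity so hits act as miR-122 inhibitors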
Active calls of the source: *; · = no result; [ ] = dose if it differs, or a comment.

1) Cc1ccc(C)c(S(=O)(=O)Nc2ccc3scnc3c2)c1
2) Cc1ccc(C)c(S(=O)(=O)Nc2ccc3[nH]c(=O)[nH]c3c2)c1
3) Cc1c(C(=O)Nc2ccc(Cl)cn2)oc2ccccc12
4) CO[C@H]1CN(C)C(=O)c2cc(NS(=O)(=O)CC(F)(F)F)ccc2OC[C@H](C)N(C(=O)c2ccc3c(c2)OCO3)C[C@@H]1C
5) COc1ccccc1NC(=O)Cn1nnc(C(=O)NCc2cccs2)c1N
6) COc1ccc(NC(=O)Cn2nnc(C(=O)NCc3cccs3)c2N)cc1
7) Nc1c(C(=O)NCc2ccco2)nnn1CC(=O)Nc1ccccc1
8) Cc1ccc(C)c(NC(=O)Cn2nnc(C(=O)NCc3ccco3)c2N)c1

Screen / compound no.	1	2	3	4	5	6	7	8
C2C12 statin	-16.6	7.7	85.6*	-0.8	-40.4	·	96.9*	10.2
Glyco luc inh	8.9	-1.2	-0.7	·	28.5*	0.6	-0.2	21.7
Cneo AK release	-2.1	0.9	-1.6	-0.9	-0.4	·	0.3	-6.2
UUG fidelity	-1.1	-22.5	-13.5	15.0	-22.9	·	-24.0	3.6
miR-122 sensor	158.2*	·	0.5	·	37.1	·	-1.8	10.1

9) O=C(NCc1ccco1)c1ccccc1NS(=O)(=O)c1ccc2c(c1)OCCO2
10) O=C(NCc1ccco1)c1ccccc1NS(=O)(=O)c1cccs1
11) O=S1(=O)N=CN(Cc2cccc(F)c2)c2ccccc21
12) N#Cc1cccc(CN2C=NS(=O)(=O)c3ccccc32)c1
13) C[C@@H](O)C#Cc1ccc([C@@H]2[C@H](CO)N3CCCCN(CC4CCOCC4)C[C@@H]23)cc1
14) C[C@@H]1CN([C@H](C)CO)C(=O)c2cc(NC(=O)CCC(F)(F)F)ccc2O[C@@H](C)CCCCO[C@H]1CN(C)S(=O)(=O)c1ccccc1
15) O=c1[nH]nc(Cc2ccc(Cl)cc2Cl)c2ccccc12
16) O=c1[nH]nc(Cc2ccc(Cl)cc2)c2ccccc12

Screen / compound no.	9	10	11	12	13	14	15	16
C2C12 statin	108.6*	·	·	2.8	·	·	140.3*	19.7
Glyco luc inh	3.3	0.5	1.0	-1.3	·	·	-6.2	-3.0
Cneo AK release	1.4	·	-0.2	1.7	-0.2	-1.7	3.4	2.2
UUG fidelity	-5.6	·	-16.7	-9.0	17.9	9.4	-26.6	-11.3
miR-122 sensor	-1.0	·	156.9*	0.5	-4.8[16.7 µM]	3.1[16.7 µM]	-10.4	-11.4

17) COc1ccc(C(=O)c2ccc(OC)cc2O)c(O)c1
18) O=C(OCC(=O)N1CCOCC1)c1ccccc1OCc1ccccc1
19) C[C@@H]1CN([C@@H](C)CO)S(=O)(=O)c2ccc(C3=CCCC3)cc2O[C@H]1CN(C)S(C)(=O)=O
20) CCCNC(=O)C[C@@H]1CC[C@H]2[C@@H](COc3ccc(NC(=O)Nc4c(C)noc4C)cc3C(=O)N2C)O1
21) O=C(NC1CCCc2ccccc21)c1ccc2c(c1)OCO2 (stereo not drawn)
22) CC(NCc1ccc2c(c1)OCO2)C(=O)NC1CCCc2ccccc21 (stereo not drawn)
23) c1ccc(CN2CCC(Nc3nc(-c4cccnc4)nc4ccccc34)CC2)cc1
24) CSc1ccc(CNCCCN(C)C)cc1

Screen / compound no.	17	18	19	20	21	22	23	24
C2C12 statin	128.3*	5.4	-42.3	8.8	-4.1	99.4*	-28.0	·
Glyco luc inh	-0.8	1.5	·	·	-3.3	1.6	39.6*	-3.2
Cneo AK release	3.0	-0.9	·	-5.9	2.3	3.2	-0.3	-3.7
UUG fidelity	-7.4	-25.4	·	-2.3	-17.4	-0.8	-4.0	4.6
miR-122 sensor	1.6	·	2.9[16.7 µM]	-22.5[16.7 µM]	6.7	0.8	-7.5	-4.9

Molecules above with a thiophene ring, fused or not:
5) COc1ccccc1NC(=O)Cn1nnc(C(=O)NCc2cccs2)c1N
6) COc1ccc(NC(=O)Cn2nnc(C(=O)NCc3cccs3)c2N)cc1
10) O=C(NCc1ccco1)c1ccccc1NS(=O)(=O)c1cccs1

Screen / compound no.	5	6	10
C2C12 statin	-40.4	·	·
Glyco luc inh	28.5*	0.6	0.5
Cneo AK release	-0.4	·	·
UUG fidelity	-22.9	·	·
miR-122 sensor	37.1	·	·

The listing continues:
25) CCC1CCCCN1C(=O)C1CC(c2cc(Cl)c(OC)cc2OC)=NO1 (stereo not drawn)
26) O=C(C1CC(c2ccccc2O)=NO1)N1CCCC1 (stereo not drawn)
27) COc1cc(OC)c(C2=NOC(C(=O)N3CCCc4ccccc43)C2)cc1Cl (stereo not drawn)
28) CCOC(=O)N1CCN(C(=O)C2CC(c3ccccc3OC)=NO2)CC1 (stereo not drawn)
29) CNC(=O)C[C@@H]1CC[C@@H]2[C@H](COc3ccc(NC(=O)Nc4ccc(F)cc4)cc3C(=O)N2C)O1
30) Cc1cn([C@H]2C[C@H](O)[C@@H](/C=C/C(=O)N3CCN(Cc4ccc(F)cc4)CC3)O2)c(=O)[nH]c1=O
31) Cc1ccc(S(=O)(=O)N(C)C[C@@H]2Oc3ccc(NS(=O)(=O)c4c(C)noc4C)cc3C(=O)N([C@H](C)CO)C[C@@H]2C)cc1
32) CCC(CC)C(=O)Nc1cccc(/C(C)=N/NC(=O)c2c(Br)cnn2C)c1

Screen / compound no.	25	26	27	28	29	30	31	32
C2C12 statin	2.2	-47.4	134.9*	105.9*	-2.3	0.4	-34.7	6.6
Glyco luc inh	1.9	-1.9	-0.7	0.1	·	-1.4	·	0.6
Cneo AK release	-1.1	-1.0	-0.4	1.7	2.3	-0.5	-1.2	-1.4
UUG fidelity	-0.4	-3.6	-10.3	7.4	2.4	0.9	7.2	5.9
miR-122 sensor	9.8	3.9	2.1	-1.6	-8.3[16.7 µM]	-1.6	-2.2[16.7 µM]	5.3

33) CCC(CC)C(=O)Nc1cccc(/C(C)=N/NC(=O)c2ccccc2Cl)c1
34) C[C@@H]1CCCCO[C@@H](CN(C)S(=O)(=O)c2ccc(Cl)cc2)[C@H](C)CN([C@@H](C)CO)C(=O)c2cc(NC(=O)Nc3cccc4ccccc34)ccc2O1
35) Cc1cc(C(=O)N2CCN(C/C=C/c3ccccc3)CC2)no1
36) O=C(c1cnccn1)N1CCN(C/C=C/c2ccccc2)CC1
37) CC(C)Cn1c(NCCO)nc2ccccc21
38) OCCNc1nc2ccccc2n1CC(O)c1ccccc1 (stereo not drawn)
39) CO[C@H]1CN(C)C(=O)c2cc(NC(=O)C3CCOCC3)ccc2OC[C@@H](C)NC[C@H]1C
40) CO[C@@H]1CN(C)C(=O)c2cc(NC(=O)C3CCOCC3)ccc2OC[C@H](C)NC[C@@H]1C

Screen / compound no.	33	34	35	36	37	38	39	40
C2C12 statin	111.7*	·	4.8	102.3*	93.3*	·	-7.8	-1.3
Glyco luc inh	3.0	·	-1.8	2.5	-1.2	1.0	·	·
Cneo AK release	1.3	3.1	-2.3	-1.9	-4.3	·	106.7*	101.7*
UUG fidelity	0.3	-4.8	15.4	-13.9	-7.4	·	16.1	21.9
miR-122 sensor	1.2	-11.9[16.7 µM]	-3.5	-6.0	-6.8	·	44.3[16.7 µM]	37.1[16.7 µM]

41) CCC(C(=O)N1CCN(Cc2ccc3c(c2)OCO3)CC1)n1c(=O)[nH]c2ccccc2c1=O (stereo not drawn)
42) CC(=O)N1c2c(cc(Br)cc2S(=O)(=O)NCC2COc3ccccc3O2)CC1C (stereo not drawn)
43) CC(=O)Nc1ccc(NS(=O)(=O)c2cc(-c3cnc(C4CC4)o3)ccc2C)cc1
44) Cc1ccc(-c2cnc(C3CC3)o2)cc1S(=O)(=O)Nc1ccccc1
45) CCOc1ccccc1NS(=O)(=O)c1ccc(-c2cnc(C3CC3)o2)cc1
46) Cc1ccc(S(=O)(=O)N(C)C[C@@H]2OCCCC[C@@H](C)Oc3ccc(NC(=O)Nc4ccc5c(c4)OCO5)cc3C(=O)N([C@@H](C)CO)C[C@H]2C)cc1
47) CCNC(=O)[C@H]1[C@H](CO)[C@H]2Cn3c(ccc(/C=C/c4ccccc4)c3=O)[C@@H]1N2CC
48) C[C@H](O)C#Cc1cnc2c(c1)C(=O)N([C@@H](C)CO)C[C@@H](C)[C@H](CN(C)CC1CCCC1)O2

Screen / compound no.	41	42	43	44	45	46	47	48
C2C12 statin	9.2	16.6	-22.3	-36.7	-51.7	·	14.8	19.1
Glyco luc inh	-0.7	-2.7	6.9	19.6	6.3	·	·	·
Cneo AK release	36.9	0.8	0.4	-0.9	0.2	-1.2	-3.4	12.1
UUG fidelity	-13.9	-2.9	-6.0	-21.6	-15.9	-4.4	·	-3.2
miR-122 sensor	15.2	119.7*	10.1	334.5*	126.8*	-5.8[16.7 µM]	5.1[16.7 µM]	10.0[16.7 µM]
